Reference: paper PMC10819019 (Pharmaceutics, 2024)

Experiment: Stability assay of DPP-4 inhibitors after incubation with cysteine (nonenzymatic)
Conditions: incubation with L-cysteine in phosphate buffer, 120 min

- Cysteine conjugate formation (high-resolution MS): observed
SMILES: N#C[C@@H]1CCCN1C(=O)CNC12CC3CC(CC(O)(C3)C1)C2 [Vildagliptin, vildagliptin]
